From PubChem BioAssay AID2521 (Sanford-Burnham Center for Chemical Genomics, 2010)
Only a part is listed here, and it is no random draw. Active and inactive are the calls of the source.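 How the source made its calls: active means inhibition above about 40% at 20 µM (limit read from the data); inactive means the rest.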

Protein sequences, listed by entry. Tags and fused reporters are not part of them. Lines headed by an entry give the natural chain unless they say otherwise; changes in a name come on top.
UniProt P35414: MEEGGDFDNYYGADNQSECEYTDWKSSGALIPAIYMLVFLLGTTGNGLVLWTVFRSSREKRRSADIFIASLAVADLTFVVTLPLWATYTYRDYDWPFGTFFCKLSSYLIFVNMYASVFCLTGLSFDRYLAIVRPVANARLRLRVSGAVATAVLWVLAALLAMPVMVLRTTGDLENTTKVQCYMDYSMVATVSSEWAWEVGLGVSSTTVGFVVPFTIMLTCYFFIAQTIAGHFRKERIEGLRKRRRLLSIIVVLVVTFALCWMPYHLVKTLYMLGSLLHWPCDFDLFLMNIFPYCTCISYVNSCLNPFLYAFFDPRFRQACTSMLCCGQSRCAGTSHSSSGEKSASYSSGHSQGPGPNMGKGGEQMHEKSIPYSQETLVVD

molecular target: Apelin receptor (Homo sapiens) (UniProt P35414); experiment: blockade of apelin-induced APJ beta-arrestin recruitment – CHO-K1 cells, beta-arrestin complementation, luminescence, primary screen (AID 2521); conditions: at 20 µM, stronger effect = higher value;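 further: cells challenged with 10 nM apelin-13 agonist together with compound; plate controls were apelin-13 plus DMSO wells for no effect and DMSO wells lacking apelin-13 for full effect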

Question: `C[C@H]1OP(=O)(Oc2ccccc2)[C@H](O)[C@H](O)[C@H]1N=[N+]=[N-]` (stereo not given in full) was tested. Which inhibition did it give?
Answer: The inhibition was inactive: 10.2%.

Question: How did the inhibition turn out when `O=P(Nc1nc2ccccc2s1)(c1ccccc1)c1ccccc1` was run?
Answer: The inhibition was inactive: 1.54%.

Question: With `CN(C)C1(CNC(=O)c2ccc(Cl)c(S(N)(=O)=O)c2)CCCCC1` as the molecule, how does the inhibition read?
Answer: Its inhibition is inactive: -22.3%.

Question: `O=P(Nc1ccccn1)(c1ccc(Br)cc1)c1ccc(Br)cc1` was tested. Which inhibition did it give?
Answer: The inhibition was inactive: -9.69%.

Question: Which inhibition does the source give for `O=C(OC1CN2CCC1CC2)c1cccc(Cl)c1` (stereo not given) here?
Answer: Its inhibition is inactive: 6.66%.

Question: For `C(Cc1nn[nH]n1)Cc1nn[nH]n1`, which inhibition is on record?
Answer: Its inhibition is inactive: 3.39%.

Question: `Nc1ccc([As](=O)(O)c2ccc([N+](=O)[O-])cc2)cc1` was tested. Which inhibition did it give?
Answer: Its inhibition is inactive: -0.256%.

Question: `O=[As](O)(c1ccccc1)c1ccc(O)cc1` was tested. Which inhibition did it give?
Answer: Its inhibition is inactive: 13.4%.

Question: For `O=[N+]([O-])c1ncn(CCn2cnc([N+](=O)[O-])n2)n1`, which inhibition is on record?
Answer: Its inhibition is inactive: -38.9%.

Question: How did the inhibition turn out when `c1nnnn1CCn1cnnn1` was run?
Answer: Its inhibition is inactive: 3.79%.

Question: For `O=P(Nc1nccs1)(c1ccccc1)c1ccccc1`, which inhibition is on record?
Answer: The inhibition was inactive: 14%.

Question: How did the inhibition turn out when `CC(C)C(=O)NC(Sc1ccccc1)C(Cl)(Cl)Cl` (stereo not given) was run?
Answer: The inhibition was inactive: 2.84%.

Question: How did the inhibition turn out when `CC(C)(C)C(=O)NC(Sc1ccccc1)C(Cl)(Cl)Cl` (stereo not given) was run?
Answer: The inhibition was inactive: -32.1%.

Question: `CCOc1ccc(C2=NCC(CBr)S2)cc1` (stereo not given) was tested. Which inhibition did it give?
Answer: Its inhibition is inactive: 15.9%.

Question: For `O=P1(Nc2nc3ccc(Cl)cc3s2)COc2ccccc2O1` (stereo not given), which inhibition is on record?
Answer: Its inhibition is inactive: 5.67%.

Question: For `CC(=O)Nc1ccc(Oc2c([N+](=O)[O-])cc([N+](=O)[O-])cc2[N+](=O)[O-])cc1`, which inhibition is on record?
Answer: The inhibition was inactive: 8.89%.

Question: For `CC(=O)Nc1ccc([As](=O)(O)O)c(O)c1`, which inhibition is on record?
Answer: Its inhibition is inactive: 10.8%.

Question: How did the inhibition turn out when `C[C@H]1OP(=O)(Oc2ccccc2)C[C@@H]2O[C@@H]21` (stereo not given in full) was run?
Answer: The inhibition was inactive: 11.1%.

Question: Which inhibition does the source give for `C[C@@H]1C=CCP(=O)(Oc2ccccc2)O1` (stereo not given in full) here?
Answer: The inhibition was inactive: 5.25%.

Question: How did the inhibition turn out when `Cc1ccccc1CN(C)C(=O)COC(=O)C(O)(c1ccccc1)c1ccccc1` was run?
Answer: Its inhibition is inactive: 0.87%.

Question: `CC(=O)c1ccc(N2CC2c2ccncc2)cc1` (stereo not given) was tested. Which inhibition did it give?
Answer: Its inhibition is inactive: -21.1%.

Question: For `Cc1ccc(NP(=O)(Oc2cccc(C)c2)Oc2cccc(C)c2)nc1`, which inhibition is on record?
Answer: Its inhibition is inactive: 4.28%.

Question: `CCOC(=O)NC(Sc1ccccc1)C(Cl)(Cl)Cl` (stereo not given) was tested. Which inhibition did it give?
Answer: Its inhibition is inactive: 7.5%.

Question: How did the inhibition turn out when `c1ccc(-c2nn[nH]n2)c(-c2nn[nH]n2)c1` was run?
Answer: The inhibition was inactive: -16.4%.

Question: For `O=C(NC1CCS(=O)(=O)C1)NP(=S)(Oc1ccccc1)Oc1ccccc1` (stereo not given), which inhibition is on record?
Answer: Its inhibition is inactive: -11.3%.

Question: How did the inhibition turn out when `CCNC(=S)/N=C(\N)N[N+](=O)[O-]` was run?
Answer: Its inhibition is inactive: 4.19%.

Question: For `CN(C)C(=O)Oc1noc2ccccc12`, which inhibition is on record?
Answer: Its inhibition is inactive: 2.83%.

Question: Which inhibition does the source give for `CC(NC(=O)COC(=O)C(O)(c1ccccc1)c1ccccc1)c1ccccc1` (stereo not given) here?
Answer: The inhibition was inactive: -14.7%.

Question: With `Cc1ccccc1OP(=O)(Nc1ccccn1)Oc1ccccc1C` as the molecule, how does the inhibition read?
Answer: The inhibition was inactive: 9.62%.

Question: How did the inhibition turn out when `CCC(=O)N1C2C3N(C(=O)CC)C1C1N(C(=O)CC)C(C(N1C(=O)CC)N3C(=O)CC)N2C(=O)CC` was run?
Answer: The inhibition was inactive: -14.9%.

Question: With `O=C(OC1CN2CCC1CC2)c1ccccc1` (stereo not given) as the molecule, how does the inhibition read?
Answer: The inhibition was inactive: 1.23%.

Question: Which inhibition does the source give for `CC(=O)NC(SC(=S)N(CC(C)C)CC(C)C)C(Cl)(Cl)Cl` (stereo not given) here?
Answer: Its inhibition is inactive: 23.6%.

Question: With `Cc1ccc(OP(=O)(Nc2ccccn2)Oc2ccc(C)cc2)cc1` as the molecule, how does the inhibition read?
Answer: Its inhibition is inactive: 7.5%.

Question: With `COC(=O)c1cc2c(s1)N=C(c1ccccc1)N(C)P2(=O)N1CCOCC1` (stereo not given) as the molecule, how does the inhibition read?
Answer: Its inhibition is inactive: 12.4%.

Question: How did the inhibition turn out when `CN(C(=O)Cc1ccc(Cl)c(Cl)c1)[C@H]1CCCC[C@@H]1N1CCCC1` was run?
Answer: The inhibition was inactive: 4.65%.

Question: With `Cc1ccc(NP(=O)(Oc2ccccc2F)Oc2ccccc2F)nc1` as the molecule, how does the inhibition read?
Answer: Its inhibition is inactive: 5.07%.

Question: For `Cc1cc(SC(NC(=O)c2ccc(F)cc2)C(Cl)(Cl)Cl)ncn1` (stereo not given), which inhibition is on record?
Answer: The inhibition was inactive: 2.03%.

Question: For `CCOP(=O)(Nc1ccccc1)OCC`, which inhibition is on record?
Answer: Its inhibition is inactive: 13%.

Question: With `O=P(Nc1nc2ccc(Cl)cc2s1)(c1ccccc1)c1ccccc1` as the molecule, how does the inhibition read?
Answer: Its inhibition is inactive: 26.5%.

Question: For `CC(=O)Nc1ccc([As](=O)(O)O)cc1`, which inhibition is on record?
Answer: Its inhibition is inactive: 0.278%.

Question: Which inhibition does the source give for `O=C(O)c1ccccc1[As](=O)(O)O` here?
Answer: Its inhibition is inactive: -15.4%.

Question: Which inhibition does the source give for `CCN(N=Nc1nonc1N)c1nonc1N` here?
Answer: Its inhibition is inactive: 14.8%.

Question: With `O=[N+]([O-])c1cc([N+](=O)[O-])c(CCN2CCOCC2)c([N+](=O)[O-])c1` as the molecule, how does the inhibition read?
Answer: The inhibition was inactive: -21.4%.

Question: `CN1CCCC(OC(=O)C(c2ccccc2)c2ccccc2)C1` (stereo not given) was tested. Which inhibition did it give?
Answer: Its inhibition is inactive: -19.1%.

Question: How did the inhibition turn out when `Clc1ccc(Cl)c(NC2=NCC(CBr)S2)c1` (stereo not given) was run?
Answer: The inhibition was inactive: 15.5%.

Question: How did the inhibition turn out when `Cc1ccc(OP(=O)(Nc2nccs2)Oc2ccc(C)cc2)cc1` was run?
Answer: Its inhibition is inactive: 10.5%.

Question: How did the inhibition turn out when `COc1ccccc1OP(=O)(Nc1ccc(C)cn1)Oc1ccccc1OC` was run?
Answer: Its inhibition is inactive: 2.81%.

Question: With `Cc1ccc(N/C(=N/P(=O)(N2CCOCC2)N2CCOCC2)N2CCOCC2)cc1` as the molecule, how does the inhibition read?
Answer: The inhibition was inactive: -3.95%.

Question: With `CN(C(=O)Cc1ccc(Cl)c(Cl)c1)[C@H]1CCCC[C@H]1N1CCCC1` as the molecule, how does the inhibition read?
Answer: Its inhibition is inactive: -0.295%.

Question: With `NC(=O)c1cc([N+](=O)[O-])cc([N+](=O)[O-])c1N` as the molecule, how does the inhibition read?
Answer: The inhibition was inactive: -24.9%.

Question: For `O=C(NC(Sc1ccncn1)C(Cl)(Cl)Cl)c1ccccc1` (stereo not given), which inhibition is on record?
Answer: Its inhibition is inactive: -4.97%.

Question: For `Cc1c2non([O-])c-2c(C)[n+](=O)[n+]1[O-]`, which inhibition is on record?
Answer: The inhibition was inactive: -16.8%.

Question: For `Oc1ccccc1CNc1ccccn1`, which inhibition is on record?
Answer: The inhibition was inactive: 13.2%.

Question: For `Nc1cc(N)c2nonc2c1[N+](=O)[O-]`, which inhibition is on record?
Answer: Its inhibition is inactive: -4.93%.

Question: `CC(C)CC(=O)NC(Sc1ccc(Cl)cc1)C(Cl)(Cl)Cl` (stereo not given) was tested. Which inhibition did it give?
Answer: Its inhibition is inactive: -4.18%.

Question: With `O=[N+]([O-])c1cc([N+](=O)[O-])c(CCNc2ccccc2)c([N+](=O)[O-])c1` as the molecule, how does the inhibition read?
Answer: The inhibition was inactive: 9.7%.

Question: `CCc1nc2c(n1)c1c(non1O)c1c2no[n+]1[O-]` was tested. Which inhibition did it give?
Answer: The inhibition was inactive: -6.56%.

Question: With `Cc1ccc(NP(=O)(Oc2ccccc2)Oc2ccccc2)nc1` as the molecule, how does the inhibition read?
Answer: The inhibition was inactive: -0.161%.

Question: How did the inhibition turn out when `CC(=O)N1C2C3N(C(C)=O)C1C1N(C(C)=O)C(C(N1C(C)=O)N3C(C)=O)N2C(C)=O` was run?
Answer: Its inhibition is inactive: 6.98%.

Question: With `O=[N+]([O-])c1cccc2n[nH]nc12` as the molecule, how does the inhibition read?
Answer: The inhibition was inactive: -18.3%.

Question: `COc1ccc(C2=NCC(CBr)S2)cc1` (stereo not given) was tested. Which inhibition did it give?
Answer: Its inhibition is inactive: 7%.

Question: `CC1CCN(C(=O)Oc2c(Cl)cc(Cl)c3cccnc23)CC1` was tested. Which inhibition did it give?
Answer: The inhibition was inactive: -2.85%.

Question: For `CN(C)C(=O)OCCc1n(C)cc[n+]1C`, which inhibition is on record?
Answer: Its inhibition is inactive: 12.8%.

Question: Which inhibition does the source give for `CC(C)=N/N=C(\N)N[N+](=O)[O-]` here?
Answer: Its inhibition is inactive: 14.2%.

Question: `CCN(/C(=N/P(=O)(N1CCOCC1)N1CCOCC1)N1CCOCC1)c1ccc(OC)cc1` was tested. Which inhibition did it give?
Answer: Its inhibition is inactive: -19.7%.
